Laboratory results: US20130209543A1, “ENHANCED TREATMENT REGIMENS USING MTOR INHIBITORS” (Intellikine LLC, priority 2011, published 2013)

Tests used:
Type in all cases: biochemical
PI3K γ = PI3K γ (Homo sapiens, UniProt P48736); experiment: PI3K γ kinase assay
PI3K δ = PI3K δ (Homo sapiens, UniProt O00329); experiment: PI3K δ kinase assay; details: Table 1
mTOR = molecular target: T1, mTOR (Homo sapiens, UniProt P42345); experiment: mTOR kinase inhibition assay; details: Table 1
T1 construct: purchased Invitrogen

PI3K α = PI3K α (Homo sapiens, UniProt P42336); experiment: PI3K α kinase assay
PI3K β = PI3K β (Homo sapiens, UniProt P42338); experiment: PI3K β kinase assay; details: Table 1

CC(=O)Nc1nc2ccc(-c3nn(C(C)C)c4ncnc(N)c34)cc2o1 [Compound 3]
IC50 (PI3K γ; Table 1): < 10 µM
IC50 (PI3K δ): < 10 µM
IC50 (mTOR): < 10 µM

Nc1nc2cc(-c3nn(C4CCC(N5CCOCC5)CC4)c4ncnc(N)c34)ccc2o1 (centres unmarked) [Compound 6]
IC50 (PI3K γ; Table 1): < 10 µM
IC50 (PI3K α; Table 1, read-out: PI3K α IC50): < 10 µM

Nc1nc2cc(-c3cn(C4CCOCC4)c4ncnc(N)c34)ccc2o1 [Compound 9]
IC50 (PI3K γ; Table 1): < 1 µM
IC50 (PI3K δ): < 1 µM

COc1cccc2cc(-c3nn(C(C)C)c4ncnc(N)c34)[nH]c12 [Compound 10]
IC50 (PI3K γ; Table 2): > 0.5 µM
IC50 (PI3K α): > 0.5 µM

Nc1ncnc2c1c(-c1cc3cc(O)ccc3[nH]1)nn2C1CCCC1 [Compound 12]
IC50 (PI3K γ; Table 2): 0.1 to 0.5 µM

CC(C)n1nc(-c2ccc3c(NC4CC4)noc3c2)c2c(N)ncnc21 [Compound 14]
IC50 (PI3K γ; Table 1): < 1 µM

CNc1noc2ccc(-c3nn(C(C)C)c4ncnc(N)c34)cc12 [Compound 15]
IC50 (PI3K γ; Table 1): > 10 µM

CC(C)n1nc(-c2ccc3onc(NC4CC4)c3c2)c2c(N)ncnc21 [Compound 16]
IC50 (PI3K γ; Table 1): < 10 µM

Nc1noc2ccc(-c3nn(CCN4CCOCC4)c4ncnc(N)c34)cc12 [Compound 18]
IC50 (PI3K γ; Table 1): > 10 µM

CCOC(=O)C(C)n1nc(-c2ccc3oc(N)nc3c2)c2c(N)ncnc21 (centres unmarked) [Compound 24]
IC50 (PI3K γ; Table 1): > 10 µM

Nc1nc2cc(-c3nn(C4CC(O)C4)c4ncnc(N)c34)ccc2o1 (centres unmarked) [Compound 26]
IC50 (PI3K β): < 1 µM
IC50 (PI3K δ): < 1 µM

Like-named read-outs stand apart in the source and are kept apart here.
